ChEMBL document CHEMBL5352423, “Discovery of potent human dihydroorotate dehydrogenase inhibitors based on a benzophenone scaffold” (Eur J Med Chem, 2022)

The chains behind the UniProt entries cited, without tags or fusion partners. Where a name states a change or a piece, a line headed by the entry shows the natural chain unless it says otherwise.
UniProt Q02127: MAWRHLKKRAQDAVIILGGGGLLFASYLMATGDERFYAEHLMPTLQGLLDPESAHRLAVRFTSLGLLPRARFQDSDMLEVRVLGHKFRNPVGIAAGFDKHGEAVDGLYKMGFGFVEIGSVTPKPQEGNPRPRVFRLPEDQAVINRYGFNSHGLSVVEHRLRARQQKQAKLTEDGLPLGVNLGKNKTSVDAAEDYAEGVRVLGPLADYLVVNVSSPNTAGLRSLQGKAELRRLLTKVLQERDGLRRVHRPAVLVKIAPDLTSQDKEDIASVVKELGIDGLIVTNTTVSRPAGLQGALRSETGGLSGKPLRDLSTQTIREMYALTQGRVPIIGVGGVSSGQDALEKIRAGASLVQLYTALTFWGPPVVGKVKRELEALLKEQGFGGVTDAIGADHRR

Biological target: Dihydroorotate dehydrogenase (quinone), mitochondrial (Homo sapiens, UniProt Q02127)
Experiment: Potency index, ratio of teriflunomide IC50 to test compound IC50 for human DHODH

`C/C(O)=C(\C#N)C(=O)Nc1cc(O[C@@H](C)C(F)(F)F)c(C(=O)c2ccccc2Cl)cc1F` showed a Ratio IC50 of 37.
